Source: US9315491B2 (DEVELOPMENT CENTER FOR BIOTECHNOLOGY, priority 2009, dated 2016)

Experiments:
[1] = test system: A549 cells; test: Antiproliferation assay (MTS), A549; format: cell-based; conditions: Homo sapiens; A549, 72 hours of drug treatment
[2] = test system: PC-3 cells; test: Antiproliferation assay (MTS), PC-3; format: cell-based; conditions: Homo sapiens, PC3, 72 hours of drug treatment
Protocol: (1) Antiproliferation Assay
PC-3, U-87 MG, HCC1954 and BT474 cell lines were purchased from the American Type Culture Collection (ATCC, USA). PC-3 was grown in F12K medium (GIBCO) containing 10% FBS. U-87 MG was grown in Eagle's minimum essential medium (MEM, Sigma) supplemented with nonessential amino acids, L-glutamine, sodium pyruvate, and 10% FBS. HCC1954 was grown in RPMI medium (GIBCO) containing 10% FBS. […] All cells were incubated in a humidified atmosphere containing 5% CO2 at 37° C.
Cell lines were inoculated to the wells of a 96-well culture plate with 1000-5000 cells per well. The compounds were prepared and used to treat cells with less than 1% DMSO. After 72 hours of drug treatment, the viability of each cell line was examined by CellTiter 96 Aqueous Non-Radioactive Cell Proliferation Assay (Promega). The living cells were detectable by conversion of MTS into aqueous, soluble formazan. MTS/PMS solution was freshly prepared and 20 μl of MTS/PMS solution was added to each well of the 96-well cultured plate. The assay plate was incubated for 3 hours and the absorbance at 490 nm was measured by EMax ELISA Reader (Molecular Devices). The IC50 values of compounds were determined after carrying out assays at eight serially diluted concentrations of each compound in triplicate, and are the mean of three separate determinations. The results were analyzed using linear regression software (GraphPad Prism 5; GraphPad Software Inc.).

SMILES	IC50 [1] [nM]	IC50 [2] [nM]
COc1cnc(-c2ccc(NC(=O)Nc3ccc(N4CCOCC4)nc3)cc2)nc1N1CCOCC1 [MTR-0353, 1-[4-(5-Methoxy-4-morpholin-4-yl-pyrimidin-2-yl)-phenyl]-3-(6-morpholin-4-yl-pyridin-3-yl)-urea]	557 ± 7	396 ± 6
CSc1c(Cl)nc(-c2ccc(NC(=O)Nc3ccc(S(N)(=O)=O)cc3)cc2)nc1N1CCOCC1 [MTR-0358, 4-{3-[4-(4-Chloro-5-methylsulfanyl-6-morpholin-4-yl-pyrimidin-2-yl)-phenyl]-ureido}-benzenesulfonamide]	144 ± 1	34 ± 1
CCOc1c(C(=O)N2CCOCC2)nc(-c2ccc(NC(=O)Nc3ccc(C(N)=O)cc3)cc2)nc1N1CCOCC1 [MTR-0364, 4-(3-{4-[5-Ethoxy-4-(morpholine-4-carbonyl)-6-morpholin-4-yl-pyrimidin-2-yl]-phenyl}-ureido)-benzamide]	462 ± 8	142 ± 14
CCOC(=O)c1nc(-c2ccc(NC(=O)Nc3ccc(S(C)(=O)=O)cc3)cc2)nc(N2CCOCC2)c1OCC [MTR-0365, 5-Ethoxy-2-{4-[3-(4-methanesulfonyl-phenyl)-ureido]-phenyl}-6-morpholin-4-yl-pyrimidine-4-carboxylic acid ethyl ester]	74 ± 5	23 ± 1
CCOc1cnc(-c2ccc(NC(=O)Nc3ccc(NC(C)=O)cc3)cc2)nc1N1CCOCC1 [MTR-0368, N-(4-{3-[4-(5-Ethoxy-4-morpholin-4-yl-pyrimidin-2-yl)-phenyl]-ureido}-phenyl)-acetamide]	214 ± 2	74 ± 2
CCOC(=O)c1nc(-c2ccc(NC(=O)Nc3ccc(NS(C)(=O)=O)cc3)cc2)nc(N2CCOCC2)c1OCC [MTR-0369, 5-Ethoxy-2-{4-[3-(4-methanesulfonylamino-phenyl)-ureido]-phenyl}-6-morpholin-4-yl-pyrimidine-4-carboxylic acid ethyl ester]	280 ± 6	44 ± 4
CCOC(=O)c1nc(-c2ccc(NC(=O)Nc3ccc(NC(C)=O)cc3)cc2)nc(N2CCOCC2)c1OCC [MTR-0370, 2-{4-[3-(4-Acetylamino-phenyl)-ureido]-phenyl}-5-ethoxy-6-morpholin-4-yl-pyrimidine-4-carboxylic acid ethyl ester]	287 ± 5	92 ± 4
CSc1cnc(-c2ccc(NC(=O)Nc3ccc(NS(C)(=O)=O)cc3)cc2)nc1N1CCOCC1 [MTR-0376, N-(4-{3-[4-(5-Methylsulfanyl-4-morpholin-4-yl-pyrimidin-2-yl)-phenyl]-ureido}-phenyl)-methanesulfonamide]	595 ± 33	142 ± 10
CSc1cnc(-c2ccc(NC(=O)Nc3ccc(N4CCOCC4=O)cc3)cc2F)nc1N1CCOCC1 [MTR-0378, 1-[3-Fluoro-4-(5-methylsulfanyl-4-morpholin-4-yl-pyrimidin-2-yl)-phenyl]-3-[4-(3-oxo-morpholin-4-yl)-phenyl]-urea]	186 ± 3	113 ± 11
COc1cnc(-c2ccc(NC(=O)Nc3ccc(C(=O)N4CCOCC4)cc3)cc2)nc1N1CCOCC1 [MTR-0382, 1-[4-(5-Methoxy-4-morpholin-4-yl-pyrimidin-2-yl)-phenyl]-3-[4-(morpholine-4-carbonyl)-phenyl]urea]	74 ± 5	19 ± 1
COc1cnc(-c2ccc(NC(=O)Nc3ccc(C(N)=O)cc3)c(F)c2)nc1N1CCOCC1 [MTR-0385, 4-{3-[2-Fluoro-4-(5-methoxy-4-morpholin-4-yl-pyrimidin-2-yl)-phenyl]-ureido}-benzamide]	361 ± 13	396 ± 6
CSc1c(Cl)nc(-c2ccc(NC(=O)Nc3ccc(S(C)(=O)=O)cc3)cc2)nc1N1CCOCC1 [MTR-0387, 1-[4-(4-Chloro-5-methylsulfanyl-6-morpholin-4-yl-pyrimidin-2-yl)-phenyl]-3-(4-methanesulfonyl-phenyl)-urea]	148 ± 10	88 ± 3
CSc1c(-c2ccncc2)nc(-c2ccc(NC(N)=O)cc2)nc1N1CCOCC1 [MTR-0388, [4-(5-Methylsulfanyl-4-morpholin-4-yl-6-pyridin-4-yl-pyrimidin-2-yl)-phenyl]-urea]	250 ± 8	136 ± 3
CSc1c(-c2ccncc2)nc(-c2ccc(NC(=O)Nc3ccc(N4CCOCC4=O)cc3)cc2)nc1N1CCOCC1 [MTR-0391, 1-[4-(5-Methylsulfanyl-4-morpholin-4-yl-6-pyridin-4-yl-pyrimidin-2-yl)-phenyl]-3-[4-(3-oxo-morpholin-4-yl)-phenyl]-urea]	6	8
CSc1c(-c2ccncc2)nc(-c2ccc(NC(=O)Nc3ccc(C(N)=O)cc3)cc2)nc1N1CCOCC1 [MTR-0392, 4-{3-[4-(5-Methylsulfanyl-4-morpholin-4-yl-6-pyridin-4-yl-pyrimidin-2-yl)-phenyl]-ureido}-benzamide]	188 ± 7	22
C[S+]([O-])c1cnc(-c2ccc(NC(=O)Nc3ccc(N4CCOCC4=O)cc3)cc2)nc1N1CCOCC1 (stereo not shown) [MTR-0401, 1-[4-(5-Methanesulfinyl-4-morpholin-4-yl-pyrimidin-2-yl)-phenyl]-3-[4-(3-oxo-morpholin-4-yl)-phenyl]-urea]	685 ± 35	169 ± 3
CSc1cnc(-c2ccc(NC(=O)Nc3ccc(S(C)(=O)=O)cc3)cc2)nc1N1CCOCC1 [MTR-0404, 1-(4-Methanesulfonyl-phenyl)-3-[4-(5-methylsulfanyl-4-morpholin-4-yl-pyrimidin-2-yl)-phenyl]-urea]	273 ± 1	109
COc1cnc(-c2ccc(NC(=O)Nc3ccc(N4CCOCC4=O)cc3)c(F)c2)nc1N1CCOCC1 [MTR-0405, 1-[2-Fluoro-4-(5-methoxy-4-morpholin-4-yl-pyrimidin-2-yl)-phenyl]-3-[4-(3-oxo-morpholin-4-yl)-phenyl]-urea]	88 ± 6	74 ± 2
COc1cnc(-c2ccc(NC(=O)Nc3ccc(N4CCOCC4=O)cc3)cc2F)nc1N1CCOCC1 [MTR-0406, 1-[3-Fluoro-4-(5-methoxy-4-morpholin-4-yl-pyrimidin-2-yl)-phenyl]-3-[4-(3-oxo-morpholin-4-yl)-phenyl]-urea]	> 10000	285 ± 5
COc1cnc(-c2ccc(NC(=O)Nc3ccc(C(N)=O)cc3)cc2F)nc1N1CCOCC1 [MTR-0407, 4-{3-[3-Fluoro-4-(5-methoxy-4-morpholin-4-yl-pyrimidin-2-yl)-phenyl]-ureido}-benzamide]	> 10000	386 ± 16
CCOc1cnc(-c2ccc(NC(=O)Nc3ccc(N4CCN(S(C)(=O)=O)CC4)cc3)cc2)nc1N1CCOCC1 [MTR-0420, 1-[4-(5-Ethoxy-4-morpholin-4-yl-pyrimidin-2-yl)-phenyl]-3-[4-(4-methanesulfonyl-piperazin-1-yl)-phenyl]-urea]	234 ± 1	148 ± 2
CCOc1cnc(-c2ccc(NC(=O)Nc3ccc(C(=O)N4CCOCC4)cc3)cc2)nc1N1CCOCC1 [MTR-0421, 1-[4-(5-Ethoxy-4-morpholin-4-yl-pyrimidin-2-yl)-phenyl]-3-[4-(morpholine-4-carbonyl)-phenyl]-urea]	87 ± 1	37 ± 1
CCOc1cnc(-c2ccc(NC(=O)Nc3ccc(S(C)(=O)=O)cc3)cc2)nc1N1CCOCC1 [MTR-0424, 1-[4-(5-Ethoxy-4-morpholin-4-yl-pyrimidin-2-yl)-phenyl]-3-(4-methanesulfonyl-phenyl)-urea]	118 ± 2	51 ± 1
COc1cnc(-c2ccc(NC(=O)Nc3cccc(NC(C)=O)c3)cc2)nc1N1CCOCC1 [MTR-0426, N-(3-{3-[4-(5-Methoxy-4-morpholin-4-yl-pyrimidin-2-yl)-phenyl]-ureido}-phenyl)-acetamide]	962 ± 58	282 ± 11
COc1cnc(-c2ccc(NC(=O)Nc3ccc(C(=O)NCCCN(C)C)cc3)cc2)nc1N1CCOCC1 [MTR-0427, N-(3-Dimethylamino-propyl)-4-{3-[4-(5-methoxy-4-morpholin-4-yl-pyrimidin-2-yl)-phenyl]-ureido}-benzamide]	1800 ± 52	125 ± 2
CSc1c(Cl)nc(-c2ccc(NC(=O)Nc3ccc(C(=O)N4CCC(N(C)C)CC4)cc3)cc2)nc1N1CCOCC1 [MTR-0436, 1-[4-(4-Chloro-5-methylsulfanyl-6-morpholin-4-yl-pyrimidin-2-yl)-phenyl]-3-[4-(4-dimethylamino-piperidine-1-carbonyl)-phenyl]-urea]	299 ± 10	78 ± 4
CSc1c(-c2cccnc2)nc(-c2ccc(NC(=O)Nc3ccccc3)cc2)nc1N1CCOCC1 [MTR-0438, 1-[4-(5-Methylsulfanyl-4-morpholin-4-yl-6-pyridin-3-yl-pyrimidin-2-yl)-phenyl]-3-phenyl-urea]	116 ± 4	48 ± 1
CCOc1cnc(-c2ccc(NC(=O)Nc3ccc(NC(C)=O)nc3)cc2)nc1N1CCOCC1 [MTR-0442, N-(5-{3-[4-(5-Ethoxy-4-morpholin-4-yl-pyrimidin-2-yl)-phenyl]-ureido}-pyridin-2-yl)-acetamide]	392 ± 15	110 ± 10
CCOC(=O)c1nc(-c2ccc(NC(=O)Nc3ccc(NC(C)=O)nc3)cc2)nc(N2CCOCC2)c1OCC [MTR-0443, 2-{4-[3-(6-Acetylamino-pyridin-3-yl)-ureido]-phenyl}-5-ethoxy-6-morpholin-4-yl-pyrimidine-4-carboxylic acid ethyl ester]	529 ± 7	131 ± 6
